One molecule from publication PMC11276905 (International Journal of Molecular Sciences, 2024) can be followed below.

Assay [1] addresses T1, HNE in U937 lysates (Homo sapiens, UniProt P08246).
T1 construct: the myeloid cell line U937, which can differentiate into neutrophils [25] and expresses HNE; host or cells: U937 (histiocytic lymphoma), undifferentiated
T1 sequence (P08246 30-247 limits assumed): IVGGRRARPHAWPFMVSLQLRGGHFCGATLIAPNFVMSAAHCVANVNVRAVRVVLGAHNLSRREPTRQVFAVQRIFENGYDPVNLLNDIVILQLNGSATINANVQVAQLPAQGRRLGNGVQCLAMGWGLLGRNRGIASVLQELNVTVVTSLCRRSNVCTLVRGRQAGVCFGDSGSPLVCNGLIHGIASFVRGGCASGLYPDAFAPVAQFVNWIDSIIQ
In words: Inhibition of HNE activity in U937 lysates. In kind it is biochemical. The conditions noted are these: U937 lysate 1000 cells/µL, incubated 1 h 37 °C, Morrison fit, mean ± SD. The procedure: For the quantification and characterization of HNE-like activity in cell lysates, the density of the sample cell suspension was first quantified using a CASY-1 cell counter.
(§1) To determine the inhibition constants of reversible inhibitors with isolated HNE and HNE in cell lysates, HNE (0.5 nM) and U937 lysates (1000 cells/µL) were incubated with serial dilutions of the compounds in assay buffer at 37 °C for ≥ 1 h. Subsequently, residual HNE activity was measured as described above and compared to the activity of uninhibited HNE. […] The inhibition curves generated were fitted to Morrisons’s equation to obtain the dissociation equilibrium constant Ki with pro-Fit (Quantum Soft, Uetikon am See, Switzerland) using a Levenberg–Marquardt algorithm.

Assay [2] concerns the target T2, isolated HNE (human neutrophil elastase) (Homo sapiens, UniProt P08246).
T2 construct: immediately processed to its active form in the trans-Golgi before being targeted to azurophil granules; purchased Merck (Darmstadt, Germany) 324681
T2 sequence (P08246 30-267): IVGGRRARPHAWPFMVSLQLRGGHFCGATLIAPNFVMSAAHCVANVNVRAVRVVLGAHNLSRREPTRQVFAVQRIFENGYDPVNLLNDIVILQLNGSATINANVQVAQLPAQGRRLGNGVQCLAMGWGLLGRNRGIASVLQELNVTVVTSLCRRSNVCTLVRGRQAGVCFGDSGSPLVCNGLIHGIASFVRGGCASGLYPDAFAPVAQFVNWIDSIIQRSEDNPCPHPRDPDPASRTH
Description: Inhibition of isolated HNE, steady-state kinetics (MeOSuc-AAPV-AMC). It is filed as biochemical. The conditions noted are these: HNE 0.5 nM, incubated 1 h 37 °C, Morrison fit, mean ± SD; compound 5b in phosphate buffer pH 7.4. The procedure:
as §1

With `CC(C)(C)C(=O)Oc1ccc(S(=O)(=O)Nc2ccccc2C(=O)NCC(=O)O)cc1` [Sivelestat, sivelestat], the inhibition constant Ki (in general, a dissociation constant, usually derived from enzyme kinetics or from competition with a known ligand) was 0.019 µM in assay [1] and 0.017 µM in assay [2].
